From patent publication US11534441B2, “MAP4K1 inhibitors” (Blueprint Medicines Corporation, priority 2020, dated 2022)

Chains of the proteins cited; added tags and fusions are not shown.
UniProt Q92918, whole entry: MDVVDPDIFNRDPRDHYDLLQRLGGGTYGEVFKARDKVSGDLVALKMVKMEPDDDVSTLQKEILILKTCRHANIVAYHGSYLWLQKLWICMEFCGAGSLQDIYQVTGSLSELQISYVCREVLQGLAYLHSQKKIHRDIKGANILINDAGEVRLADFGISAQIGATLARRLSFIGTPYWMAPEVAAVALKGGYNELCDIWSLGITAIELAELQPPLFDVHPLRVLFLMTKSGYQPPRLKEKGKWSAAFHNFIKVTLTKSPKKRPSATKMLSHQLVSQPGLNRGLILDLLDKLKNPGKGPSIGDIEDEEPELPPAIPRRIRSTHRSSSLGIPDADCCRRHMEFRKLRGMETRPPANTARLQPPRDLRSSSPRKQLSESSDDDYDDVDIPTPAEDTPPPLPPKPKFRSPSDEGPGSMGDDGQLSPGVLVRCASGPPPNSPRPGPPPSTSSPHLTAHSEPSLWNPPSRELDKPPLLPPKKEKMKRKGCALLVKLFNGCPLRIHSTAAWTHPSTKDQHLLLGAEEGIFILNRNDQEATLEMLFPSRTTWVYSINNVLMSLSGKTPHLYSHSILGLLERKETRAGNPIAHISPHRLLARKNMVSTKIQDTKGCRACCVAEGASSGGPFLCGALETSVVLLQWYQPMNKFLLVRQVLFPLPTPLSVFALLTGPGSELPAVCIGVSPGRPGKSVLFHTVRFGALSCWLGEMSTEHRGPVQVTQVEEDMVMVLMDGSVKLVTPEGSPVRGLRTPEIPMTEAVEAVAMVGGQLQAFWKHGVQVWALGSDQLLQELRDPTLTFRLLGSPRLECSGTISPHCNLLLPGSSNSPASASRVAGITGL

Key:
[1] = target: MAP4K1 (HPK1) (Homo sapiens (Human), UniProt Q92918); assay: MAP4K1 (HPK1) biochemical enzymatic activity, electrophoretic mobility shift (EZReader 2), ATP at APPKM (26 μM)
Source text: MAP4K1 (HPK1) and relevant off-target enzymatic activity was monitored using the Perkin Elmer electrophoretic mobility shift technology platform—the EZReader 2. […] Within the linear, steady-state phase of the kinase enzymatic reaction, the mixed pool of phosphorylated (product) and non-phosphorylated (substrate) peptides was passed through the microfluidic system of the PerkinElmer EZ Reader 2, under an applied electric potential difference. The presence of the phosphate group on the product peptide provided a difference in mass and charge between that of the substrate peptide, resulting in a separation of the substrate and product pools in the sample (Perrin et al. 2010). As the product and substrate peptide mixture passes the lasers within the instrument, these pools are detected (λex=488 nm, λent=568 nm) and resolved as separate peaks. The ratio between these peaks reflects the activity of the compound at that concentration, in that well, under those conditions.
Inhibitors were dissolved in 100% DMSO at a stock concentration of 10 mM. A 100×, 10-point, 4-fold serial dilution of each inhibitor was created in 100% DMSO either manually or on a Hamilton STAR liquid handler, starting at a relevant concentration, usually 1 mM. A volume of 0.130 μL of each concentration was transferred to the relevant wells of a 384-well plate (Greiner 781 201) in duplicate using a TTPLabtech Mosquito nano-litre dispenser. Using a Multidrop Combi, the remaining constituents of the kinase reaction were added to the 130 nL of dosed compound as follows (see table below for final reaction details):
Enzyme activity assays at the ^APPKM for ATP or 1 mM ATP: In each well of a 384-well plate, 0.1-15 nM of untreated enzyme was incubated in a total of 13 μL of buffer (100 mM HEPES pH 7.5, 0.015% Brij 35, 10 mM MgCl2, 1 mM DTT) with 1.5 μM fluorescent peptid and 20-1000 μM ATP, at 25° C., for 60-180 minutes in the presence or absence of a dosed concentration series of compound (1% DMSO final concentration). The kinase reactions were stopped by the addition of 70 μl of Stop buffer (100 mM HEPES pH 7.5, 0.015% Brij 35, 35 mM EDTA and 0.2% of Coating Reagent 3 (Caliper Lifesciences)). The plates were read on a Caliper EZReader 2 as described above.

[2] = tested on: expanded CD3+ T cells; assay: T cell enhancement of cytokines: IL2 measurement (HTRF) in expanded CD3+ T cells stimulated with anti-CD3/anti-CD28; settings: read-out: IL-2 EC50, IL-2 measurement
Protocol: T cells are isolated from whole blood of healthy donors by immunomagnetic negative selection following manufacture's protocol (StemCell Technologies, human T cell isolation kit). Purity of isolated cells is assessed by flow cytometry and yields 95-98% CD3^+ T cells. For expansion of T cells, 1×10^6 cells/well are plated in serum free cell expansion media (ThermoFisher) containing 30 U of recombinant human IL2 (R&D) and stimulated with 25 ul of CD3/CD28 beads (Invitrogen) in 24 well plates for 3-4 days. T cells are then expanded in 175 cm flasks and maintained at a cell density of 1 to 2.5×10^6 cells/ml days by addition of ⅔ of fresh media every 2-3 days. After 10-14 days, cells are frozen in BamBanker freezing media (Thermo) and stored in liquid nitrogen.
For IL2 measurement, expanded CD3^+ T cells are dispensed at 100K cells/well (cultured in X-VIVO 10 Serum-free media) and are stimulated with plate-bound anti-CD3 and soluble anti-CD28 in the presence of vehicle or compound of the disclosure at various concentrations for 24 h. As outlined in the manufacturer's protocol (Cisbio), 16 μL of conditioned media is transferred to a white 384-well low volume plate. Following a 24 h incubation with the anti-IL2 antibodies, the homogenous time resolved fluorescence (HTRF) is measured.

[3] = read-out: MAP4K1 IC50, class designation
[4] = read-out: MAP4K1 IC50, numeric value

SMILES	IC50 [1, 3]	IC50 [1, 4]	EC50 ([2]; class designation)	EC50 ([2]; numeric value)
CCOc1ccc(C(C)(C)NC)c2cc(Nc3ccnc(C(C)(C)F)n3)ncc12	> 10 nM			
CC[C@@](C)(N)c1cnc(NC2CC2)c2cnc(Nc3ccc4c(n3)[C@@H](C)[C@H](C)OC4=O)cc12	0.31 to 1 nM			
COc1ncc(C(C)(N)C2CC2)c2cc(Nc3ccc4c(n3)C(C)(C)OC4=O)ncc12 (centres unmarked)	0.31 to 1 nM	0.36 nM		
CNc1ncc(C(C)(C)N)c2cc(Nc3ccnc(C(C)(C)C)n3)ncc12	1.1 to 10 nM	1.6 nM	< 35 nM	18.9 nM
COc1ncc(C(C)(N)C2CC2)c2cc(Nc3ccc4c(n3)[C@@H](C)[C@H](C)OC4=O)ncc12 (single isomer, unassigned) [100]	1.1 to 10 nM	2.6 nM		
CNc1ncc(C(C)(C)N)c2cc(Nc3ccc4c(n3)CCCC4=O)ncc12	0.31 to 1 nM		< 35 nM	21.1 nM

The next compounds have a lower IC50 [1, 3] than those just listed; values first:

IC50 [1, 3]	IC50 [1, 4]	EC50 ([2]; class designation)	EC50 ([2]; numeric value)	SMILES
< 0.3 nM				CNc1ncc(C(C)(C)N)c2cc(Nc3ccnc(N4CC[C@@H]4C)n3)ncc12
< 0.3 nM	0.13 nM			COc1ncc(C(C)(N)C2CC2)c2cc(Nc3ccc4c(n3)[C@@H](C)[C@H](C)OC4=O)ncc12 (single isomer, unassigned) [99]
< 0.3 nM		< 35 nM	9.3 nM	C[C@@H]1c2nc(Nc3cc4c(C(C)(C)N)cnc(OCC(F)(F)F)c4cn3)ccc2C(=O)OC1(C)C
< 0.3 nM	0.19 nM	< 35 nM	6.6 nM	COCC(C)(N)c1cnc(OC)c2cnc(Nc3ccc4c(n3)C(C)C(C)OC4=O)cc12 (centres unmarked)

Like-named read-outs stand apart in the source and are kept apart here.
